Assay results as given in patent US20160303053A1, “POLYMER-COATED THERAPEUTIC NANOPARTICLES” (priority 2015, published 2016).

Experiments:
[1] = test system: HER-2 positive BT-474 breast cancer cells; experiment: Cell growth inhibition, calcein AM live cell staining; type: cell-based, human; conditions: 10 μg/ml CPT
Procedure: (§1) The effectiveness of combination treatments using PCL-CPT-TTZ nanoparticles were evaluated in HER-2 positive BT-474 breast cancer cells (ATCC) and HER-2 negative cell line MDA-MB-231 (ATCC). The cells were cultured in Hybri-Care (ATCC), and RPMI 1640 (Life Technologies), respectively supplemented with 10% FBS (Corning) and 1% (100 units/ml) Penicillin-Streptomycin (Gibco) at 37° C. and 5% CO2. HUVEC cells (Invitrogen) were used as a normal cell control that was cultured in Medium 200 (Invitrogen) with Low Serum Growth Supplement (LSGS) kit (Invitrogen). Cells were plated in 96-well tissue culture plates (Corning) at a density of 10,000 cells/well in 200 μl respective medium. After 18 hours of growth, 10 μl of nanoparticles made in Example 5 were added to the medium. The final concentrations of CPT were 0.1, 0.2, 0.5, 1, 2, 5 and 10 μg/ml. The corresponding PCL concentrations were 2.9, 5.8, 14.6, 29.1, 58.2, 145.5, and 291.1 μg/ml, respectively, and TTZ concentrations were 0.4, 0.8, 1.9, 3.8, 7.5, 18.8, and 37.7 μg/ml, respectively. CPT-PCL-BSA nanoparticles made in Example 5 were used as a HER-2 non-specific control. Cells were also treated with the same concentrations of PCL solutions to determine its cytotoxic effects. Cells treated with 10 μl of PBS were used as positive controls. 3 hours later, the medium was replaced with fresh medium. After 72 hours, the plates were centrifuged at 100 rcf for 15 min. The supernatants were discarded. Live cells were stained with 2 μM calcein AM (Life technologies) in PBS by incubating at room temperature for 30 min. The fluorescence intensity (F.I.) of calcein AM was measured using 485/528 excitation/emission filters using the plate reader (BioTek Synergy 2). The percentage inhibition in cell growth was calculated using the following equation (2): […]
(§2) The therapeutic activity of CPT-PCL-TTZ nanoparticles was evaluated in HER-2 positive BT-474 (FIG. 10) and HER-2 negative MDA-MB-231 cells (FIG. 11) at varying concentrations. These are the previously reported dosage amounts of CPT in human breast cancer cells. […]

[2] = test system: HER-2 negative MDA-MB-231 cells; experiment: as above; type: cell-based, human
Procedure: as §1, §2

**Q.** Which “BT-474 cell growth inhibition” value ([1]; 3 h exposure, read after 72 hours) does the source give for “CPT-PCL-TTZ nanoparticles: CPT-PCL nanoparticles with Trastuzumab (TTZ) antibody conjugated to the surface via amide bonds” here?
**A.** Its value is 61.6%.

**Q.** What about the “cell growth inhibition relative to CPT-PCL-BSA nanoparticles” value ([1]; BT-474) of the same substance?
**A.** The value was 1.5 fold.

**Q.** What about the “difference in growth inhibition between CPT-PCL-BSA and CPT-PCL-TTZ nanoparticles” value [2] of the same substance?
**A.** The value was “No difference”.
